One molecule from ChEMBL document CHEMBL1938395, “New benzimidazole derivatives as antiplasmodial agents and plasmepsin inhibitors: synthesis and analysis of structure-activity relationships” (Bioorg Med Chem Lett, 2012) can be followed below.

A short description of this assay: Selectivity ratio of IC50 for human cathepsin D to IC50 for Plasmodium falciparum plasmepsin-2.

As to `O=C(Cn1c(-c2ccccn2)nc2ccccc21)c1ccc(F)cc1`, the Ratio IC50 is 3.
